# From PubChem BioAssay (Tox21)
# The chains behind the UniProt entries cited, without tags or fusion partners.
# UniProt P16473, whole entry: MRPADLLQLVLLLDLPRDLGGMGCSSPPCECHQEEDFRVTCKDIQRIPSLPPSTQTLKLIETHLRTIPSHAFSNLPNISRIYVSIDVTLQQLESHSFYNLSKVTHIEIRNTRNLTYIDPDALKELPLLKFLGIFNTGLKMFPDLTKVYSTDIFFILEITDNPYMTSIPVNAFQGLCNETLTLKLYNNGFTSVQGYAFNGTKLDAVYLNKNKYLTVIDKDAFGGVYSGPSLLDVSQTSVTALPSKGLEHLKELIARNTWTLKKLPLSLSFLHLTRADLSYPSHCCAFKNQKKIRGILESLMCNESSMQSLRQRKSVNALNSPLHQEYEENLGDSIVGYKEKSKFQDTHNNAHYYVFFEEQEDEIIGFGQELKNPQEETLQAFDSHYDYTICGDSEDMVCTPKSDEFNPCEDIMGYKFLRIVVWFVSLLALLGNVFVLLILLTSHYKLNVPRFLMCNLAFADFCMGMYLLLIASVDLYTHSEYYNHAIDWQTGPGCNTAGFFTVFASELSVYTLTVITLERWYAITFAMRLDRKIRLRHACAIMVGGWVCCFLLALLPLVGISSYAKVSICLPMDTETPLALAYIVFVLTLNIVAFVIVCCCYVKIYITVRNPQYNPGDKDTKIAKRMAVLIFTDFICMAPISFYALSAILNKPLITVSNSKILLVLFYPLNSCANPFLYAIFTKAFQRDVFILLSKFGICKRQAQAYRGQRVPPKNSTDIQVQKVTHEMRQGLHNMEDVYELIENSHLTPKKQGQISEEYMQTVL
# Where “and” joins values, the source holds several entries; their conditions need not be identical. Equal values may be shown once. The entries are a selection whose mix differs from that of the whole data set. Records with an inconclusive call do not appear. Calls of active or inactive are those of the source. Unless noted, calls come from the whole dose curve; as a rule, active = well fitted curve in the direction sought with a large enough effect in the repeat runs; inconclusive = weak or mixed curves; inactive = no such curve, though single readings can be large; an effect the other way counts as inactive or inconclusive.
# What was measured:
# [1] = qHTS assay to identify small molecule antagonists of the estrogen related receptor signaling pathway with the pleiotropic PPARgamma coactivator (PGC) from Tox21 10K library (AID 1224841; call rule not given here; note: actives are mostly falling curves and most rising ones were filed inactive; nearly all actives have a fitted effect of over 50% in size); conditions: PGC/ERR reporter cell line, ONE-Glo luciferase, 18 h; at 92.4 µM (top of the series)
# [2] = qHTS assay to identify small molecule agonists of the estrogen related receptor signaling pathway with the pleiotropic PPARgamma coactivator (PGC) from Tox21 10K library (AID 1224842); conditions: PGC/ERR reporter cell line, luciferase ONE-Glo, 18 h; at 92.4 µM (top of the series); note: nearly all actives have a fitted effect of over 15% in size
# How it was run: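 PGC/ERR reporter cell line, 2,000 cells per well, incubated 6 h at 37 C before 23 nL compound in DMSO was added. After 18 h at 37 C, One-Glo luminescence read following 30 min at room temperature.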
# [3] = target: Thyrotropin receptor (Homo sapiens) (UniProt P16473); assay: qHTS assay to identify small molecule agonists of the thyroid stimulating hormone receptor (TSHR) signaling pathway (AID 1224843; calls by dose curve; note: nearly all actives have a fitted effect of over 45% in size); conditions: TSHR-HEK293 cells, cAMP HTRF, agonist mode, 30 min
# [4] = qHTS assay to identify small molecule agonists of the hypoxia (HIF-1) signaling pathway - cell viability counter screen (AID 1224844; calls by dose curve; note: nearly all actives have a fitted effect of over 50% in size); conditions: HRE-bla ME-180 viability, CellTiter-Glo luminescence, 17 h; at 76.8 µM (top of the series)
# How it was run: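 Same wells as the HIF-1 reporter screen; ME-180 cells carrying HRE-bla, 17 hr treatment at 37C; CellTiter-Glo luminescence read after 30 min at room temperature.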
# [5] = qHTS assay to identify small molecule agonists of H2AX (AID 1224845; active = well fitted activation curve with a large enough effect in the signal ratio in the repeat runs, not every such curve was filed as active; the % refers to the signal ratio; note: potency is the fitted concentration of half-maximal effect)
# How it was run: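 Wild-type CHO-K1 cells, plated overnight, exposed 3hr at 37C to 15 concentrations (0.76% DMSO final). Lysed, then HTRF anti-pH2AX (S139) cryptate and anti-H2AX-d2 antibodies, 24 hr room temperature; 665/620 nm emission read.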
# [6] = qHTS assay to identify small molecule agonists of the hypoxia (HIF-1) signaling pathway (AID 1224846; active = well fitted activation curve with a large enough effect in the signal ratio in the repeat runs, not every such curve was filed as active; the % refers to the signal ratio); conditions: HRE-bla ME-180 cells, beta-lactamase ratio, 17 h; at 76.8 µM (top of the series)
# How it was run: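 In ME-180 cells bearing an HRE-bla construct, 17 h treatment with DMSO-dissolved compounds at 37C was followed by CCF4-AM loading to quantify reporter induction.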
# [7] = qHTS assay to identify small molecule agonists of H2AX - cell viability counter screen (AID 1224847; calls by dose curve; note: top concentration of the series differs between compounds; nearly all actives have a fitted effect of over 30% in size); conditions: CHO-K1 viability, CellTiter-Glo luminescence, 3 h; at 154 µM (top of the series)
# How it was run: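 We seed wild-type CHO-K1 cells overnight, treat them for 3 hr at 37C with compounds in 15-concentration series, and quantify remaining viability by CellTiter-Glo luminescence.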
# [8] = qHTS assay to identify small molecule antagonists of the estrogen related receptor (ERR) signaling pathway from Tox21 library (AID 1224848); conditions: ERR reporter cell line, luciferase antagonist mode, 18 h; at 92.4 µM (top of the series); note: nearly all actives have a fitted effect of over 50% in size
# How it was run: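 Compounds dissolved in DMSO are pin-transferred onto ERR reporter cells (2,000 per well) that have settled for 6 h at 37 C. Plates then incubate 18 h at 37 C before ONE-Glo luciferase reagent and a luminescence read 30 min later.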
# [9] = qHTS assay to identify small molecule agonists of the estrogen related receptor (ERR) signaling pathway from Tox21 library (AID 1224849; calls by dose curve; note: nearly all actives have a fitted effect of over 15% in size); conditions: ERR reporter cell line, ONE-Glo luciferase, 18 h
# How it was run: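 Reporter cells (ERR, NTP source) treated with Tox21 10K compounds 18 h, 37 C. Readout: ONE-Glo luminescence, 30 min RT.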
# [10] = qHTS RealTime-Glo MT Cell Viability Assay in HepG2 cells - 24 hour (AID 1224867); conditions: RealTime-Glo luminescence; at 76.8 µM (top of the series); note: nearly all actives have a fitted effect of over 50% in size
# How it was run: (§1)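 Cell number in HepG2 cultures estimated from NanoLuc luminescence generated by metabolic reduction of a prosubstrate by living cells. The homogeneous, nonlytic format allowed repeated reads at 0, 8, 16, 24, 32 and 40 h of compound exposure.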
# [11] = qHTS RealTime-Glo MT Cell Viability Assay in HEK293 cells - 32 hour (AID 1224868); note: nearly all actives have a fitted effect of over 50% in size; note: potency is the fitted concentration of half-maximal effect; for activity change, negative = cytotoxic: top concentration of the series differs between compounds
# How it was run: (§2)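 Homogeneous bioluminescent viability format in HEK293 cells (600 cells/well). Following 5 h at 37 C/5% CO2, 23 nL compound was pintooled; the signal was measured repeatedly during 40 h incubation.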
# [12] = A CellTox Green Cytotoxicity Assay to monitor cytotoxicity in HEK293 cells - 0 hour (AID 1224869); conditions: CellTox Green fluorescence; note: nearly all actives have a fitted effect of over 50% in size
# How it was run: (§3)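 Homogeneous no-lysis format: HEK293 cell suspension mixed with CellTox Green reagent, seeded, incubated 5 h at 37 C/5% CO2, then dosed by pintool with compound in DMSO.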
# [13] = qHTS RealTime-Glo MT Cell Viability Assay in HepG2 cells - 40 hour (AID 1224870); conditions: RealTime-Glo luminescence; at 76.8 µM (top of the series); note: nearly all actives have a fitted effect of over 50% in size
# How it was run: (§4)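 HepG2 cells (600/well) mixed with RealTime-Glo MT reagent, settled 5 h at 37 C/5% CO2 before compound addition. Nonlytic NanoLuc luminescence from viable-cell prosubstrate reduction read repeatedly during 40 h treatment at 37 C.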
# [14] = A CellTox Green Cytotoxicity Assay to monitor cytotoxicity in HEK293 cells - 40 hour (AID 1224871); conditions: CellTox Green fluorescence; at 76.8 µM (top of the series); note: nearly all actives have a fitted effect of over 45% in size
# How it was run: as §3
# [15] = qHTS RealTime-Glo MT Cell Viability Assay in HEK293 cells - 16 hour (AID 1224872); note: nearly all actives have a fitted effect of over 50% in size; note: potency is the fitted concentration of half-maximal effect; for activity change, negative = cytotoxicity: top concentration of the series differs between compounds
# How it was run: as §2
# [16] = qHTS RealTime-Glo MT Cell Viability Assay in HepG2 cells - 8 hour (AID 1224873); conditions: RealTime-Glo luminescence; note: nearly all actives have a fitted effect of over 55% in size
# How it was run: as §4
# [17] = qHTS RealTime-Glo MT Cell Viability Assay in HEK293 cells - 40 hour (AID 1224874); conditions: RealTime-Glo luminescence; max response: active compounds read low; note: nearly all actives have a fitted effect of over 50% in size; note: potency is the fitted concentration of half-maximal effect
# How it was run: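 Measured as luminescence from the same continuously cultured HEK293 wells at successive time points (0, 8, 16, 24, 32, 40 h) after compound addition. Reagent present from seeding; dosing at 5 h; incubation 37 C.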
# [18] = A CellTox Green Cytotoxicity Assay to monitor cytotoxicity in HEK293 cells - 24 hour (AID 1224875); conditions: CellTox Green fluorescence, active compounds read high; note: nearly all actives have a fitted effect of over 45% in size
# How it was run: as §3
# [19] = A CellTox Green Cytotoxicity Assay to monitor cytotoxicity in HepG2 cells - 16 hour (AID 1224876); conditions: CellTox Green fluorescence; at 76.8 µM (top of the series); note: nearly all actives have a fitted effect of over 45% in size
# How it was run: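 Fluorescent DNA-binding dye, 600 HepG2 cells/well, 5 h preincubation then compound in DMSO; same plates read at 0–40 h, 37 C.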
# [20] = qHTS RealTime-Glo MT Cell Viability Assay in HepG2 cells - 32 hour (AID 1224877); conditions: RealTime-Glo luminescence; at 76.8 µM (top of the series); note: nearly all actives have a fitted effect of over 55% in size
# How it was run: as §1
# % is set by controls: 0 for no effect and ±100 for the full control effect.
compound,measurement,setting,value
CCC(=O)N(c1ccccc1)C1(COC)CCN(CCn2nnn(CC)c2=O)CC1,"activity, negative = inhibition",[1],inactive: 5.1%
same,activation,[2],inactive: 1.05%
same,activation,[3]; at 92.4 µM (top of the series),inactive: 1.66%
same,"activity change, negative = cytotoxicity",[4],inactive: -13.5%
same,Potency,[5],inactive
same,activation,[6],inactive: 0.608%
same,"activity change, negative = cytotoxicity",[7],inactive: -1.18%
same,"activity, negative = inhibition",[8],inactive: -1.05%
same,"activity change, positive = activation",[9]; at 92.4 µM (top of the series),inactive: -1.56%
same,"activity change, negative = cytotoxicity",[10],inactive: 2.72%
same,Potency,[11],inactive
same,cytotoxicity,[12]; at 76.8 µM (top of the series),inactive: 2.27%
same,"activity change, negative = cytotoxic",[13],inactive: -2.3%
same,cytotoxicity increase,[14],inactive: -11%
same,Potency,[15],inactive
same,"viability change, negative = cytotoxic",[16]; at 76.8 µM (top of the series),inactive: 6.78%
same,max response,[17],inactive: -15%
same,activity change,[18]; at 76.8 µM (top of the series),inactive: -3.84%
same,cytotoxicity increase,[19],inactive: 2.15%
same,"activity change, negative = cytotoxic",[20],inactive: 0.153%
CCC(=O)N(c1ccccc1)C1(COC)CCN(CCc2cccs2)CC1,activation,[2],inactive: -14.7%
same,activation,[3]; at 92.4 µM (top of the series),inactive: -0.751%
same,"activity change, negative = cytotoxicity",[4],inactive: -2.43%
same,Potency,[5],inactive
same,activation,[6],inactive: 1.33%
same,"activity change, negative = cytotoxicity",[7],inactive: -2.97%
same,"activity change, positive = activation",[9]; at 92.4 µM (top of the series),inactive: -35.7%
same,"activity change, negative = cytotoxicity",[10],inactive: -8.39%
same,Potency,[11],active: 27.5 µM
same,cytotoxicity,[12]; at 76.8 µM (top of the series),inactive: 2.25%
same,"activity change, negative = cytotoxic",[13],inactive: -9.08%
same,Potency,[15],active: 43.6 µM
same,"viability change, negative = cytotoxic",[16]; at 76.8 µM (top of the series),inactive: -0.938%
same,Potency,[17],active: 27.5 µM
same,activity change,[18]; at 76.8 µM (top of the series),inactive: 0.564%
same,cytotoxicity increase,[19],inactive: -0.175%
same,"activity change, negative = cytotoxic",[20],inactive: -11.7%
O=[N+]([O-])C(Cl)(Cl)Cl,"activity, negative = inhibition",[1],inactive: -8.56%
same,activation,[2],inactive: -0.565%
same,activation,[3]; at 92.4 µM (top of the series),inactive: 0.77%
same,"activity change, negative = cytotoxicity",[4],inactive: 0.221%
same,Potency,[5],inactive
same,activation,[6],inactive: 0.64%
same,"activity change, negative = cytotoxicity",[7],inactive: 2.27%
same,"activity, negative = inhibition",[8],inactive: 14.5%
same,"activity change, positive = activation",[9]; at 92.4 µM (top of the series),inactive: 9.5%
same,"activity change, negative = cytotoxicity",[10],inactive: 1.36%
same,Potency,[11],inactive
same,cytotoxicity,[12]; at 76.8 µM (top of the series),inactive: 4.67%
same,"activity change, negative = cytotoxic",[13],inactive: 2.29%
same,cytotoxicity increase,[14],inactive: 12.8%
same,Potency,[15],inactive
same,"viability change, negative = cytotoxic",[16]; at 76.8 µM (top of the series),inactive: 2.13%
same,max response,[17],inactive: 1.56%
same,activity change,[18]; at 76.8 µM (top of the series),inactive: 16.7%
same,cytotoxicity increase,[19],inactive: -16%
same,"activity change, negative = cytotoxic",[20],inactive: -0.186%
CN(CCCl)CCCl,activation,[3]; at 42.5 µM (top of the series),inactive: -8.71%
same,activation,[3]; at 92.4 µM (top of the series),inactive: -0.72%
same,Potency,[5],active: 31.8 µM and active: 22 µM
same,"activity change, negative = cytotoxicity",[7],inactive: 9.95%
same,"activity change, positive = activation",[9]; at 42.5 µM (top of the series),inactive: -30.9%
same,"activity change, positive = activation",[9]; at 92.4 µM (top of the series),inactive: -78.7%
same,cytotoxicity,[12]; at 35.3 µM (top of the series),inactive: -1.8%
same,cytotoxicity,[12]; at 76.8 µM (top of the series),inactive: -2.92%
same,"activity change, negative = cytotoxic",[13],inactive: -25.3%
same,"viability change, negative = cytotoxic",[16]; at 35.3 µM (top of the series),inactive: -3.58%
same,"viability change, negative = cytotoxic",[16]; at 76.8 µM (top of the series),inactive: -12.6%
same,activity change,[18]; at 35.3 µM (top of the series),inactive: 1.24%
same,activity change,[18]; at 76.8 µM (top of the series),inactive: 0.317%
